Assay results: ChEMBL document CHEMBL1140164, “Isosorbide-2-carbamate esters: potent and selective butyrylcholinesterase inhibitors” (J Med Chem, 2008)

Protein sequences, listed by entry. Tags and fused reporters are not part of them.
UniProt P06276, whole entry: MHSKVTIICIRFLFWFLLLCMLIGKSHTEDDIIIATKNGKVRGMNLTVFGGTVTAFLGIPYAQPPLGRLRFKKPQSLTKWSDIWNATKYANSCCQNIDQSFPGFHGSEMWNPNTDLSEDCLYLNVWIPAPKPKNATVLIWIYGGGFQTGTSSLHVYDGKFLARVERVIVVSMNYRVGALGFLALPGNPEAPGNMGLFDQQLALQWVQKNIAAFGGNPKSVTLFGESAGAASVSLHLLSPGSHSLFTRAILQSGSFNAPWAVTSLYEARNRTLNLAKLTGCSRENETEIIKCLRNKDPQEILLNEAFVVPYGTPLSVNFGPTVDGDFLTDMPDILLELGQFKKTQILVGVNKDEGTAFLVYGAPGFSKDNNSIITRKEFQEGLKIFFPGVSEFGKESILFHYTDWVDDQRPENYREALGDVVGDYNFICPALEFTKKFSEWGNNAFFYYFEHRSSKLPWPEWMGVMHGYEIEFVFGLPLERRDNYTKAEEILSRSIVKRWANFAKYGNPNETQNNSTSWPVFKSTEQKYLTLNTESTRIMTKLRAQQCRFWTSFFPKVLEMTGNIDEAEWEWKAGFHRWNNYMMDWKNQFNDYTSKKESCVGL

Target: Cholinesterase (Homo sapiens, UniProt P06276)
Experiment: Inhibition of human plasma BuchE by Ellman's method
Format: cell-free

C=CC[N+](C)(C)c1ccc(CCC(=O)CCc2ccc([N+](C)(C)CC=C)cc2)cc1
IC50: 255 µM

CC(C)NP(=O)(NC(C)C)OP(=O)(NC(C)C)NC(C)C [TETRAISOPROPYL PYROPHOSPHORAMIDE]
IC50: 0.733 µM
